The source of these data is article PMC4556830, “The Effect of MGCD0103 on CYP450 Isoforms Activity of Rats by Cocktail Method” (BioMed Research International, 2015).

This data set is described as follows: Pharmacokinetics of six cocktail probe drugs in rat plasma (UPLC-MS/MS) after 7-day MGCD0103 or saline. The note with it: Sprague-Dawley, po, 10 mg/kg, t 1/2, High group: MGCD0103 80 mg/kg i.g. 7 days, then probe 10 mg/kg (tolbutamide 1 mg/kg) i.g., mean ± SD, n = 10. On the procedure: The compounds were analyzed by a UPLC-MS/MS with ACQUITY I-Class UPLC and a XEVO TQD triple quadrupole mass spectrometer that was equipped with an electrospray ionization (ESI) interface (Waters Corp., Milford, MA, USA). The UPLC system included a Sample Manager with Flow-Through Needle (SM-FTN) and a Binary Solvent Manager (BSM). Data acquisition and instrument control were performed on the MassLynx 4.1 software (Waters Corp., Milford, MA, USA).
The initial mobile phase consisted of 0.1% formic acid and acetonitrile with gradient elution at a flow rate of 0.4 mL/min and an injection volume of 2 μL. […] The total run time of the analysis was 3 min.
The mass spectrometric detection was performed in a positive mode. Nitrogen was used as the cone gas (50 L/h) and desolvation gas (1000 L/h). The mass conditions were set as follows: source temperature 150°C, capillary voltage 2.5 kV, and desolvation temperature 500°C.
Forty rats (220 ± 20 g) were randomly divided into four different dosages of MGCD0103 groups (Low group, Medium group, High group, and control group with 10 rats in each group). […]
Concentration of plasma probe drugs versus time was analyzed by Version 3.0 Data Analysis System (Wenzhou Medical University, China). The main pharmacokinetic parameters of the MGCD0103 group and control group were analyzed by SPSS l8.0 statistical software.

Broadly, the half-life is the time in which the quantity being followed falls by half. In the case of `COc1ccc2[nH]c([S+]([O-])Cc3ncc(C)c(OC)c3C)nc2c1` (stereo not shown) [Omeprazole], the half-life was 1.1 ± 0.4 h.
